# Values of other authors, collected in patent US5939096A, “Liposome drug-loading method and composition” (priority 1997, dated 1999).
# Settings: pH 7; cited from earlier work
structure (smiles),measurement,value
CCn1cc(C(=O)O)c(=O)c2ccc(C)nc21 [nalidixic acid],partition coefficient Kp,3.34 ± 0.08
